The test system of the series is EMT-6 carcinoma. Put plainly: Boron biodistribution in EMT-6 tumour-bearing mice (DCP-AES). The note with it: for Blood boron concentration / Brain boron concentration / Liver boron concentration / Tumour boron concentration: single i.v. bolus approx. 5 mg boron/kg. The method, then:
Female BALB/c mice (20-25 g) bearing the EMT-6 carcinoma were used. The mice-were housed four to a cage in temperature-controlled rooms and had free access to food and water. The mice were maintained in a controlled light/dark cycle, with lights on between 0700 and 1900 h In all studies, anaesthesia was maintained with ketamine (120 mg/kg) and xylazine (20 mg/kk). Animals were monitored on a daily basis for general health. Animals were euthanised, as required, under anaesthesia.
The compounds were injected in a saline solution containing 50 mg/ml (0.5 mg boron/ml). The administered volume was 0.01 mL/gbw by single bolus injection delivering a dose of approximately 5 mg boron/kg.
Concentrations of boron in tissue samples were determined using direct current plasma atomic emission spectroscopy (DCP-AES), see Coderre, J. A., Button, T. M., Micca, P. L. Fisher, C., Nawrocky, M. M., and Liu, H. B. Int. J. Radiat Oncol. Biol. Phys. (1994) 30, 643-652.
Visual observation of animal appearance, levels of activity and general behaviour indicated no evidence of toxicity (see Miura, M., Micca, P. L., Fisher, C. D., Gordon, C. R., Heinrichs, J. C. et al. Brit. J. Radiol. (1998) 847, 773-781). Tumour, blood, brain, and liver were sampled at 6, 24, 48, and 72 hours after injection for boron analyses. Four mice were used per time sampling point (16 mice in total). The boron biodistribution data are detailed in Table 2 below.

Where the note is “6 h after injection”, poly(HPMA-co-MA-GG-F BSMel) [PP403] gave a Blood boron concentration of 13.8 ± 0.5 µg/g, a Brain boron concentration of 0.3 ± 0.1 µg/g, a Liver boron concentration of 10.4 ± 0.5 µg/g and a Tumour boron concentration of 3.5 ± 0.2 µg/g. For the setting “24 h after injection”, this substance had a Blood boron concentration of 5.7 ± 0.1 µg/g, a Brain boron concentration of 0.2 ± 0.1 µg/g, a Liver boron concentration of 7.4 ± 0.4 µg/g and a Tumour boron concentration of 3.1 ± 0.3 µg/g. Under “48 h after injection”, this substance came in with a Blood boron concentration of 4.2 ± 0.5 µg/g, a Liver boron concentration of 7.7 ± 0.4 µg/g and a Tumour boron concentration of 2.9 ± 0.1 µg/g. For the same substance, for the setting “72 h after injection”, the Blood boron concentration worked out at 2.1 ± 0.2 µg/g, the Brain boron concentration was found to be 0.1 ± 0.1 µg/g, the Liver boron concentration is 6.9 ± 0.2 µg/g and the Tumour boron concentration is 2.3 ± 0.2 µg/g. Further, where the note is “approx. 5 mg boron/kg i.v.”, the “tumour boron concentration relative to that from PP404” value is “about three times greater”.
